In the assay the target is T1, catalytic domain of TET2 (TET2CD) (Homo sapiens, UniProt Q6N021).
T1 sequence (Q6N021 with tags, fused parts or gaps limits assumed): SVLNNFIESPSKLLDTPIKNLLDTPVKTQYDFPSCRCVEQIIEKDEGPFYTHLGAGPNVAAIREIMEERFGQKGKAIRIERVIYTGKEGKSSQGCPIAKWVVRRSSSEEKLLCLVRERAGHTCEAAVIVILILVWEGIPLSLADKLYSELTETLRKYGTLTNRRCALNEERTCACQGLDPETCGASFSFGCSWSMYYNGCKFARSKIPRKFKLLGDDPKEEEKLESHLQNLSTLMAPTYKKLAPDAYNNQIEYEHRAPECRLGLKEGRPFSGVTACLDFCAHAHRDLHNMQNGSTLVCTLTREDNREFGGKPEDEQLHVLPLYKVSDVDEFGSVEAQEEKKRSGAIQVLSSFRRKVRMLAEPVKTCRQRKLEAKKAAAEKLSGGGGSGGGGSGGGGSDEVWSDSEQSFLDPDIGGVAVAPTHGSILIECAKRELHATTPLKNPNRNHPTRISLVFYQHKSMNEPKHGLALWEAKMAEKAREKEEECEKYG
Nature of the assay: ELISA of 5hmC for TET2 activity, cell free. It is filed as biochemical. To be noted: Figure 5A. (In general: In an ELISA, binding on a coated surface is turned into a signal by an enzyme label.)

Molecules are shown by their SMILES.

Regarding `O=C(O)CCC(=O)C(=O)O` [α-KG, α-ketoglutarate, reference compound], the “concentration saturating the dioxygenase activity of TET2CD” value worked out at 20 µM.

The values are drawn from publication PMC8171112 (Bioorganic & medicinal chemistry, 2021).
